# Assay results: US20200024278A1, “COMPOSITION COMPRISING ANTIBIOTIC COMPOUND AND AN HETEROCYCLIC COMPOUND AND THEIR USE IN PREVENTING OR TREATING BACTERIAL INFECTIONS” (MUTABILIS, priority 2016, published 2020)
# What was measured:
# Experiment in all cases: MIC, broth microdilution (CLSI), substance alone or ATB combined with compound at 4 or 8 μg/mL
# [1] = tested on: KPN BAA-1898; format: cell-based, K. pneumoniae
# [2] = tested on: SAU 29213; format: cell-based, S. aureus
# [3] = tested on: ECO 190317; format: cell-based, E. coli
# [4] = tested on: PAE UFR48; format: cell-based, P. aeruginosa
# [5] = tested on: PAE UFR90; format: cell-based, P. aeruginosa
# [6] = tested on: PAE 105250; format: cell-based, P. aeruginosa
structure (smiles),measurement,setting,value
O=C(N[C@H](CO)[C@H](O)c1ccc([N+](=O)[O-])cc1)C(Cl)Cl [CM],MIC ATB alone,[1]; antibiotic alone,>32 µg/mL
same,MIC ATB combined with Example 1 @8 μg/ml,[1]; with Example 1 @8 μg/ml,>32 µg/mL
same,MIC ATB combined with Example 1 @8 μg/ml,[1]; with Example 1 at 8 μg/ml,>32 µg/mL
same,MIC ATB combined with Example 7 @8 μgml,[1]; with Example 7 at 8 μg/ml,>32 µg/mL
same,MIC ATB combined with Example 9 @4 μg/ml,[1]; with Example 9 @4 μg/ml,<0.031 µg/mL
same,MIC ATB combined with Example 9 @4 μg/ml,[1]; with Example 9 at 4 μg/ml,<0.031 µg/mL
same,MIC ATB combined with Example 11 @8 μg/ml,[1]; with Example 11 at 8 μg/ml,<0.031 µg/mL
same,MIC ATB combined with Example 12 @8 μg/ml,[1]; with Example 12 at 8 μg/ml,<0.031 µg/mL
same,MIC ATB combined with Example 13 @8 μg/ml,[1]; with Example 13 at 8 μg/ml,>32 µg/mL
same,MIC ATB combined with Example 14 @8 μg/ml,[1]; with Example 14 at 8 μg/ml,<0.031 µg/mL
same,MIC ATB combined with Example 15 @4 μgml,[1]; with Example 15 at 4 μg/ml,<0.031 µg/mL
same,MIC ATB combined with Example 16 @4 μg/ml,[1]; with Example 16 at 4 μg/ml,<0.031 µg/mL
same,MIC ATB combined with Example 9 @4 μg/ml,[2]; with Example 9 @4 μg/ml,<0.031 µg/mL
same,MIC ATB combined with Example 9 @4 μg/ml,[2]; with Example 9 at 4 μg/ml,<0.031 µg/mL
same,MIC ATB combined with Example 12 @8 μg/ml,[2]; with Example 12 at 8 μg/ml,<0.031 µg/mL
same,MIC ATB combined with Example 14 @8 μg/ml,[2]; with Example 14 at 8 μg/ml,<0.031 µg/mL
same,MIC ATB combined with Example 16 @4 μg/ml,[2]; with Example 16 at 4 μg/ml,<0.031 µg/mL
same,MIC ATB combined with Example 9 @4 μg/ml,[3]; with Example 9 @4 μg/ml,<0.031 µg/mL
same,MIC ATB combined with Example 9 @4 μg/ml,[3]; with Example 9 at 4 μg/ml,<0.031 µg/mL
same,MIC ATB combined with Example 11 @8 μg/ml,[3]; with Example 11 at 8 μg/ml,<0.031 µg/mL
same,MIC ATB combined with Example 12 @8 μg/ml,[3]; with Example 12 at 8 μg/ml,<0.031 µg/mL
same,MIC ATB combined with Example 14 @8 μg/ml,[3]; with Example 14 at 8 μg/ml,<0.031 µg/mL
same,MIC ATB combined with Example 15 @4 μgml,[3]; with Example 15 at 4 μg/ml,<0.031 µg/mL
same,MIC ATB combined with Example 16 @4 μg/ml,[3]; with Example 16 at 4 μg/ml,<0.031 µg/mL
same,MIC ATB combined with Example 7 @8 μgml,[4]; with Example 7 at 8 μg/ml,>32 µg/mL
same,MIC ATB combined with Example 9 @4 μg/ml,[4]; with Example 9 @4 μg/ml,>32 µg/mL
same,MIC ATB combined with Example 9 @4 μg/ml,[4]; with Example 9 at 4 μg/ml,>32 µg/mL
same,MIC ATB combined with Example 11 @8 μg/ml,[4]; with Example 11 at 8 μg/ml,>32 µg/mL
same,MIC ATB combined with Example 13 @8 μg/ml,[4]; with Example 13 at 8 μg/ml,>32 µg/mL
same,MIC ATB combined with Example 15 @4 μgml,[4]; with Example 15 at 4 μg/ml,>32 µg/mL
same,MIC ATB combined with Example 7 @8 μgml,[5]; with Example 7 at 8 μg/ml,>32 µg/mL
same,MIC ATB combined with Example 9 @4 μg/ml,[5]; with Example 9 @4 μg/ml,>32 µg/mL
same,MIC ATB combined with Example 9 @4 μg/ml,[5]; with Example 9 at 4 μg/ml,>32 µg/mL
same,MIC ATB combined with Example 11 @8 μg/ml,[5]; with Example 11 at 8 μg/ml,>32 µg/mL
same,MIC ATB combined with Example 13 @8 μg/ml,[5]; with Example 13 at 8 μg/ml,>32 µg/mL
same,MIC ATB combined with Example 15 @4 μgml,[5]; with Example 15 at 4 μg/ml,>32 µg/mL
same,MIC ATB alone,[6]; antibiotic alone,>32 µg/mL
same,MIC ATB combined with Example 1 @8 μg/ml,[6]; with Example 1 @8 μg/ml,>32 µg/mL
same,MIC ATB combined with Example 1 @8 μg/ml,[6]; with Example 1 at 8 μg/ml,>32 µg/mL
same,MIC ATB combined with Example 7 @8 μgml,[6]; with Example 7 at 8 μg/ml,>32 µg/mL
same,MIC ATB combined with Example 9 @4 μg/ml,[6]; with Example 9 @4 μg/ml,>32 µg/mL
same,MIC ATB combined with Example 9 @4 μg/ml,[6]; with Example 9 at 4 μg/ml,>32 µg/mL
same,MIC ATB combined with Example 11 @8 μg/ml,[6]; with Example 11 at 8 μg/ml,>32 µg/mL
same,MIC ATB combined with Example 13 @8 μg/ml,[6]; with Example 13 at 8 μg/ml,>32 µg/mL
same,MIC ATB combined with Example 15 @4 μgml,[6]; with Example 15 at 4 μg/ml,>32 µg/mL
